The nature of the series: Rat in situ intestinal perfusion (ileum, mesenteric blood). As to conditions: saturated and supersaturated itraconazole perfusate.

Regarding hydroxy-itraconazole, the “metabolite in mesenteric blood during perfusion” value is “no significant amounts could be detected”.

Values taken from patent US8258137B2, “Process for release of biologically active species from mesoporous oxide systems” (Katholieke Universiteit Leuven, priority 2008, dated 2012).
